According to patent US12622887B2 (priority 2019, dated 2026):

Tested on: αKlotho
Experiment: Release of soluble αKlotho in supernatant of primary tubule cell cultures (RPTEC), ELISA
Type: cell-based
Conditions: Gentamicin sulphate 10 mM 6 h alone
Method: Concentrations of H2O2 equal to 0.1, 0.2, 0.5 up to 1 mM were also tested. […] The soluble aKlotho analysis was performed using the commercial test ELISA lbl code 277789 following the manufacturer's instructions. […] The soluble aKlotho analysis was performed using ELISA lbl test.

## gentamicin sulphate
  Average Klotho value: 0 pg/mL
